{"source": "patent EP0516725B1", "about": "“NEW USE OF LINOMIDE (R)” (Pharmacia AB (reg.number 556131-9608), priority 1990, dated 1991)", "system": "SIVsm", "experiment": "SIVsm infection of cynomolgus monkeys (body weight, CD4 cells, virus isolation, clinical state)", "key": {"[1]": {"settings": "low dose (0.3 mg/kg bw x 2), monkeys L1-3, day 75 after challenge"}}}
{"smiles": "CN(C(=O)c1c(O)c2ccccc2n(C)c1=O)c1ccccc1", "note": "[Linomide®, N-phenyl-N-methyl-1,2-dihydro-4-hydroxy-1-methyl-2-oxo-quinoline-3-carboxamide]", "values": [{"measurement": "number of CD4+ lymphocytes in peripheral blood", "setting": "[1]", "value": 0.92, "unit": "x10⁹/l"}, {"measurement": "number of CD4+ lymphocytes, % of start value", "setting": "[1]", "value": "70 % of start value"}, {"measurement": "number or frequency of CD4 cells in infected monkeys", "setting": "result in words, high dose (3 mg/kg bw x 2), monkeys L4-6", "value": "did not significantly alter"}]}
